From US10053431B2, “Tetrahydro-benzodiazepinones” (priority 2013, dated 2018)

Amino acid sequences for entries named in this document (tags omitted). Chains listed by the source or under a name are the forms on record and can include a tag or linker. Residues count along the entry.
UniProt P98170, 124-240 with tags or gaps C202A/C213G limits assumed: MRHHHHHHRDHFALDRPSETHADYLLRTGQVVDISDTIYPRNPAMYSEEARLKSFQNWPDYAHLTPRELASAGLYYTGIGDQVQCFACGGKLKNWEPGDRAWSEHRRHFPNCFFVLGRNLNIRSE
UniProt P98170, 241-356 with tags or gaps limits assumed: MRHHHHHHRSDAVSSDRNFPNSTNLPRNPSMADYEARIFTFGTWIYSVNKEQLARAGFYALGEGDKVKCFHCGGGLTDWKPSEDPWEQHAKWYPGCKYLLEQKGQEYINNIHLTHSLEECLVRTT

Tests used:
BIR2 domain of XIAP = BIR2 domain of XIAP (Homo sapiens (Human), UniProt P98170, C202A/C213G); test: TR-FRET assay for BIR2 (inhibition of binding of XIAP BIR2 domain to SMAC-derived Peptide A); conditions: 6x His-tagged BIR2 domain (aa 124-240 of XIAP) 10 nM, Peptide A 20 nM
BIR3 domain of XIAP = BIR3 domain of XIAP (Homo sapiens (Human), UniProt P98170); test: TR-FRET assay for BIR3 (inhibition of binding of XIAP BIR3 domain to SMAC-derived Peptide A); conditions: read-out: IC50 BIR3
[1] = 6x His-tagged BIR3 domain (aa 241-356 of XIAP) 10 nM, Peptide A 20 nM, TR-FRET

Row | pIC50 (BIR2 domain of XIAP) | pIC50 (BIR3 domain of XIAP; [1]) | pIC50 (BIR3 domain of XIAP; 6x His-tagged BIR3 domain (aa 241-356 of XIAP) 10 nM, Peptide A 20 nM, TR-FRET, hydrochloride) | Structure (SMILES) | pIC50 (BIR3 domain of XIAP)
1 | 7.39 | 4.28 | – | CN[C@@H](C)C(=O)N[C@H]1CN(C(=O)c2ccc(C(C)=O)cc2)c2ccccc2N(Cc2c(OCC(F)(F)F)c[n+]([O-])c3ccccc23)C1=O [Example 70, 4-(((S)-5-(4-Acetylbenzoyl)-3-((S)-2-(methylamino)propanamido)-2-oxo-2,3,4,5-tetrahydro-1H-benzo[b][1,4]diazepin-1-yl)methyl)-3-(2,2,2-trifluoroethoxy)quinoline 1-oxide hydrochloride] | –
2 | 8.30 | 4.52 | – | CN[C@@H](C)C(=O)N[C@H]1CN(C(=O)c2ccno2)c2ccccc2N(Cc2c(OC)ccc3cc(Br)ccc23)C1=O [Example 75c] | –
3 | 8.00 | 4.47 | – | CN[C@@H](C)C(=O)N[C@H]1CN(C(=O)c2ccn(C)n2)c2ccccc2N(Cc2c(OC)ccc3cc(Br)ccc23)C1=O [Example 76e] | –
4 | 8.22 | 4.61 | – | CN[C@@H](C)C(=O)N[C@H]1CN(C(=O)Cc2ccc(Cl)nc2)c2ccccc2N(Cc2c(OC)ccc3cc(Br)ccc23)C1=O [Example 89d] | –
5 | 7.96 | 4.49 | – | CN[C@@H](C)C(=O)N[C@H]1CN(C(=O)c2cnn(C)c2)c2ccccc2N(Cc2c(OC)ccc3cc(Br)ccc23)C1=O [Example 89e] | –
6 | 8.00 | 4.31 | – | CN[C@@H](C)C(=O)N[C@H]1CN(C(=O)CCOC)c2ccccc2N(Cc2c(OC)ccc3cc(Br)ccc23)C1=O [Example 90e] | –
7 | 7.70 | < 4.26 | – | CN[C@@H](C)C(=O)N[C@H]1CN(C(=O)c2ccccc2C#N)c2ccccc2N(Cc2c(OC)ccc3cc(Br)ccc23)C1=O [Example 90f] | –
8 | 7.19 | 4.35 | – | CN[C@@H](C)C(=O)N[C@H]1CN(C(=O)c2cccc(C(C)=O)c2)c2ccccc2N(Cc2c(C)ccc3ccccc23)C1=O [Example 96g] | –
9 | 6.69 | 4.53 | – | CN[C@@H](C)C(=O)N[C@H]1CN(S(=O)(=O)c2ccc(C(C)=O)cc2)c2ccccc2N(Cc2c(C)ccc3ccccc23)C1=O [Example 98c] | –
10 | 6.84 | < 4.26 | – | CN[C@@H](C)C(=O)N(C)[C@H]1CN(C(=O)c2ccc([N+](=O)[O-])cc2)c2ccccc2N(Cc2c(OC)ccc3cc(Br)ccc23)C1=O [Example 107, (S)-N-((S)-1-((6-bromo-2-methoxynaphthalen-1-yl)methyl)-5-(4-nitrobenzoyl)-2-oxo-2,3,4,5-tetrahydro-1H-benzo[b][1,4]diazepin-3-yl)-N-methyl-2-(methylamino)propanamide hydrochloride] | –
11 | 6.56 | < 4.26 | – | CN[C@@H](C)C(=O)NC1C(=O)N(Cc2c(OC)ccc3ccccc23)c2ccccc2N(CC23CC4CC(CC(C4)C2)C3)C1=O (stereo partly drawn) [Example 110, (2S)-N-[5-(1-adamantylmethyl)-1-[(2-methoxynaphthalen-1-yl)methyl]-2,4-dioxo-1,5-benzodiazepin-3-yl]-2-(methylamino)propanamide] | –
12 | 6.61 | 4.38 | – | CN[C@@H](C)C(=O)N[C@H]1CN2C(=O)CCCN(C)C(=O)c3ccc4c(c(OC)ccc4c3)CN(C1=O)c1ccccc12 [Example 112, Cyclic-5-[(S)-5-(3-Amino-pentanoyl)-3-((S)-2-methylamino-propionylamino)-2-oxo-2,3,4,5-tetrahydro-benzo[b][1,4]diazepin-1-ylmethyl]-6-methoxy-naphthalene-2-carboxylic amide hydrochloride] | –
13 | 6.77 | < 4.26 | – | CN[C@@H](C)C(=O)N[C@H]1CN(S(=O)(=O)c2ccc(N)cc2)c2ccccc2N(Cc2c(C)ccc3ccccc23)C1=O [Example 117, (25)-N-[(35)-1-(4-aminophenyl)sulfonyl-5-[(2-methylnaphthalen-1-yl)methyl]-4-oxo-2,3-dihydro-1,5-benzodiazepin-3-yl]-2-(methylamino)propanamide;hydrochloride] | –

Continued, compound first:

Row | Structure (SMILES) | pIC50 (BIR2 domain of XIAP) | pIC50 (BIR3 domain of XIAP; [1]) | pIC50 (BIR3 domain of XIAP; 6x His-tagged BIR3 domain (aa 241-356 of XIAP) 10 nM, Peptide A 20 nM, TR-FRET, hydrochloride) | pIC50 (BIR3 domain of XIAP)
14 | CN[C@@H](C)C(=O)N[C@H]1CN(C(=O)c2ccc(C(C)=O)cc2)c2ccccc2N(Cc2c(OC)ccc3c(Br)cccc23)C1=O [Example 69f] | 8.15 | 4.51 | – | –
15 | CN[C@@H](C)C(=O)N[C@H]1CN(C(=O)c2ccc(C(=O)OC)cc2)c2ccccc2N(Cc2noc3ccccc23)C1=O [Example 72, Methyl 4-((S)-5-(benzo[d]isoxazol-3-ylmethyl)-3-((S)-2-(methylamino)propanamido)-4-oxo-2,3,4,5-tetrahydro-1H-benzo[b][1,4]diazepine-1-carbonyl)benzoate hydrochloride] | 7.36 | – | – | < 4.26
16 | CN[C@@H](C)C(=O)N[C@H]1CN(Cc2ccccc2)c2ccccc2N(Cc2c(OC)ccc3cc(Br)ccc23)C1=O [Example 77, (S)—N—((S)-5-Benzyl-1-((6-bromo-2-methoxynaphthalen-1-yl)methyl)-2-oxo-2,3,4,5-tetrahydro-1H-benzo[b][1,4]diazepin-3-yl)-2-(methylamino)propanamide trifluoroacetate] | 7.33 | – | – | 4.32
17 | CN[C@@H](C)C(=O)N[C@H]1CN(C(=O)CS(C)(=O)=O)c2ccccc2N(Cc2c(OC)ccc3c(Br)cccc23)C1=O [Example 81, (S)—N—((S)-1-((5-Bromo-2-methoxynaphthalen-1-yl)methyl)-5-(2-(methylsulfonyl)acetyl)-2-oxo-2,3,4,5-tetrahydro-1H-benzo[b][1,4]diazepin-3-yl)-2-(methylamino)propanamide hydrochloride] | 7.62 | – | – | < 4.26
18 | CN[C@@H](C)C(=O)N[C@H]1CN(C(=O)CC2CCOCC2)c2ccccc2N(Cc2c(OC)ccc3cc(Br)ccc23)C1=O [Example 86, (S)—N—((S)-1-((6-bromo-2-methoxynaphthalen-1-yl)methyl)-2-oxo-5-(2-(tetrahydro-2H-pyran-4-yl)acetyl)-2,3,4,5-tetrahydro-1H-benzo[b][1,4]diazepin-3-yl)-2-(methylamino)propanamide hydrochloride] | 7.89 | – | – | 4.30
19 | CN[C@@H](C)C(=O)N[C@H]1CN(C(=O)c2ccccn2)c2ccccc2N(Cc2c(OC)ccc3cc(Br)ccc23)C1=O [Example 89a, (S)—N—[(S)-1-(6-Bromo-2-methoxy-naphthalen-1-ylmethyl)-2-oxo-5-(pyridine-2-carbonyl)-2,3,4,5-tetrahydro-1H-benzo[b][1,4]diazepin-3-yl]-2-methylamino-propionamide hydrochloride] | 8.22 | – | – | 4.35
20 | CN[C@@H](C)C(=O)N[C@H]1CN(C(=O)Cc2ccccn2)c2ccccc2N(Cc2c(OC)ccc3cc(Br)ccc23)C1=O [Example 89c] | 8.00 | 4.30 | – | –
21 | CN[C@@H](C)C(=O)N[C@H]1CN(C(=O)c2ccc(F)cc2)c2ccccc2N(Cc2c(OC)ccc3c(Br)cccc23)C1=O [Example 92, (S)—N—[(S)-1-(5-Bromo-2-methoxy-naphthalen-1-ylmethyl)-5-(4-fluoro-benzoyl)-2-oxo-2,3,4,5-tetrahydro-1H-benzo[b][1,4]diazepin-3-yl]-2-methylamino-propionamide hydrochloride] | 8.05 | – | – | 4.86
22 | CN[C@@H](C)C(=O)N[C@H]1CN(S(=O)(=O)c2ccc(NC(C)=O)cc2)c2ccccc2N(Cc2c(C)ccc3ccccc23)C1=O [Example 98a, (S)—N—[(S)-5-(4-Acetylamino-benzenesulfonyl)-1-(2-methyl-naphthalen-1-ylmethyl)-2-oxo-2,3,4,5-tetrahydro-1H-benzo[b][1,4]diazepin-3-yl]-2-methylamino-propionamide hydrochloride] | 6.68 | – | – | < 4.26
23 | CN[C@@H](C)C(=O)N[C@H]1CN(C(=O)c2ccc(CO)cc2)c2ccccc2N(Cc2c(C)ccc3ccccc23)C1=O [Example 102, (S)—N—[(S)-5-(4-Hydroxymethyl-benzoyl)-1-(2-methyl-naphthalen-1-ylmethyl)-2-oxo-2,3,4,5-tetrahydro-1H-benzo[b][1,4]diazepin-3-yl]-2-methylamino-propionamide hydrochloride] | 7.24 | – | – | < 4.26
24 | CN[C@@H](C)C(=O)N[C@H]1CN(C(=O)c2ccc(C(C)O)cc2)c2ccccc2N(Cc2c(OC)ccc3cc(Br)ccc23)C1=O (stereo partly drawn) [Example 103, (2S)-N-((3S)-1-((6-bromo-2-methoxynaphthalen-1-yl)methyl)-5-(4-(1-hydroxyethyl)benzoyl)-2-oxo-2,3,4,5-tetrahydro-1H-benzo[b][1,4]diazepin-3-yl)-2-(methylamino)propanamide] | 8.04 | 4.39 | – | –
25 | CN[C@@H](C)C(=O)N[C@H]1CN(C(=O)c2ccc(C(C)O)cc2)c2ccccc2N(Cc2c(OC)ccc3cc(Br)ccc23)C1=O (stereo partly drawn) [Example 104, (2S)-N-((3S)-1-((6-bromo-2-methoxynaphthalen-1-yl)methyl)-5-(4-(1-hydroxyethyl)benzoyl)-2-oxo-2,3,4,5-tetrahydro-1H-benzo[b][1,4]diazepin-3-yl)-2-(methylamino)propanamide] | 7.92 | 4.32 | – | –
26 | CN[C@@H](C)C(=O)N[C@H]1CN(C(=O)c2ccc(C(C)=O)cc2)c2ccccc2N(CC(=O)Nc2nccs2)C1=O [Example 106, (25)-N-[(35)-1-(4-acetylbenzoyl)-4-oxo-5-[2-oxo-2-(1,3-thiazol-2-ylamino)ethyl]-2,3-dihydro-1,5-benzodiazepin-3-yl]-2-(methylamino)propanamide;2,2,2-trifluoroacetic acid] | 6.62 | < 4.29 | – | –
27 | CN[C@@H](C)C(=O)N[C@H]1CN(C(=O)c2cccc(C(C)O)c2)c2ccccc2N(Cc2c(C)ccc3ccccc23)C1=O (stereo partly drawn) [Example 118, (2S)-N-[(3S)-1-[3-(1-hydroxyethyl)benzoyl]-5-[(2-methylnaphthalen-1-yl)methyl]-4-oxo-2,3-dihydro-1,5-benzodiazepin-3-yl]-2-(methylamino)propanamide;hydrochloride] | 7.28 | – | 4.63 | –

pIC50: −log10 of the molar value. Where a name gives a salt, the structure may show the parent alone. Read-outs that look alike come from different tables or passages of the source.
